Assay: Inhibition of AKT (unknown origin)
Parameters: species or system Homo sapiens

- IC50: 4.7 µM
SMILES: CCCCCCCCCCCCCCCCCCOP(=O)([O-])OC1CC[N+](C)(C)CC1 [PERIFOSINE]
